The entries are a selection whose mix differs from that of the whole data set. Active and inactive are the calls of the source.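 Rule for the calls: active = superoxide response under a set limit, about three screen SD below normal (cut at about 65% in these data); inactive = the rest.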

The test in a line: yeast aging ROS inhibitors as calorie-restriction mimetics – HTS, primary screen (AID 2690).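 Note: yeast aged for seven days with compound at 30 °C before DHE staining; 100% = average MFI of all compound-treated wells on the plate with controls excluded.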 As to conditions: S. cerevisiae aged cells, superoxide DHE fluorescence; at 10 µM; active compounds read low.
As to `CCCOP(=S)(Nc1nc(N)cc(=O)[nH]1)OCCC`, the superoxide response (% of plate mean) is inactive: 103%. The figure for `Cc1ccc(NCCc2c([N+](=O)[O-])cc([N+](=O)[O-])cc2[N+](=O)[O-])cc1` is inactive: 105%. The same measure for `Nc1cccc2c([As](=O)(O)O)cccc12`: inactive: 102%; for `CCOP(=O)(Nc1cccc2ccccc12)OCC`: inactive: 76.2%.

As to `COc1cc(C2NCCC3(OCCO3)C2(C)C)cc(OC)c1OC` (stereo unspecified), the superoxide response (% of plate mean) is inactive: 96.6%. The same measure for `CS(=O)(=O)c1cc([N+](=O)[O-])c2no[n+]([O-])c2c1`: inactive: 123%. The same measure for `O=P(Nc1nccs1)(c1ccccc1)c1nc2ccccc2s1` (stereo unspecified): inactive: 103%; for `O=P(Nc1nccs1)(Oc1ccccc1)Oc1ccccc1`: inactive: 106%; for `CCOP1(=S)c2c(C)nn(CCC#N)c2N=C(c2ccccc2F)N1C` (stereo unspecified): inactive: 89.5%. The same measure for `O=C(O)COc1ccc([As](=O)(O)O)cc1[N+](=O)[O-]`: inactive: 92.8%; for `Nc1ccccc1[As](=O)(O)c1ccccc1`: inactive: 102%; for `NC(=O)Nc1ccc([As](=O)(O)O)cc1`: inactive: 91.7%.

Regarding `CN(C(=O)Cc1ccc(Cl)c(Cl)c1)[C@H]1CC[C@@]2(CCCO2)C[C@@H]1N1CCCC1`, the superoxide response (% of plate mean) was inactive: 95.8%. The figure for `CN(C)C(=O)c1cc([N+](=O)[O-])cc2c1-c1c(cc([N+](=O)[O-])cc1[N+](=O)[O-])C2=O` is inactive: 103%. The same measure for `O=[N+]([O-])c1ccc2c(c1)nnn2O`: inactive: 118%; for `CCOP1(=S)c2c(C)nn(CCC#N)c2N=C(c2ccc(F)cc2)N1C` (stereo unspecified): inactive: 90.4%; for `CN(C(=O)Cc1ccccc1)[C@@H]1CC[C@]2(CCCO2)C[C@H]1N1CCCC1`: inactive: 95.7%. The figure for `N#CCCN(C(=O)COC(=O)C(O)(c1ccccc1)c1ccccc1)c1ccc(F)cc1` is inactive: 98.7%; for `COc1cc(C(=O)NCC2(N3CCOCC3)CCCCC2)ccc1OCC(C)C` it is inactive: 113%; for `C[As](=O)(O)c1cccc(C(=O)O)c1` it is inactive: 89%. On to `O=[As](O)(c1ccc(O)cc1)c1ccccc1O`, for which the superoxide response (% of plate mean) is inactive: 94%. The figure for `Cc1ccc2nc3c(c(C)c2c1)CC(C(Cl)Cl)S3` (stereo unspecified) is inactive: 98.6%; for `Cc1ccc(OP(=O)(Nc2ccc([N+](=O)[O-])cn2)Oc2ccc(C)cc2)cc1` it is inactive: 84%. On to `CC(C)c1ccc(OP(=O)(Nc2ccccn2)Oc2ccccc2F)cc1` (stereo unspecified), for which the superoxide response (% of plate mean) was inactive: 95.5%. Regarding `ClCCSc1nnc(-c2cccnc2)o1`, the superoxide response (% of plate mean) is inactive: 97.9%.

For the compound `O=[N+]([O-])c1cc([N+](=O)[O-])c(-c2ccn[nH]2)s1`, the superoxide response (% of plate mean) is inactive: 91.3%. `CCN(CC)C(=S)SC(NC=O)C(Cl)(Cl)Cl` (stereo unspecified): the superoxide response (% of plate mean) is inactive: 140%.

`CC(C)NC(=O)NP(=O)(Oc1ccccc1)Oc1ccccc1`: the superoxide response (% of plate mean) was inactive: 95.5%. `Cc1cc(=O)[nH]c(N[N+](=O)[O-])n1`: the superoxide response (% of plate mean) is inactive: 89.4%.

On to `O=C(OC1CN2CCC1CC2)C12CC3CC(CC(C3)C1)C2` (stereo unspecified), for which the superoxide response (% of plate mean) was inactive: 92.8%. For the compound `Cc1c2c(nc3ccccc13)SC(C(Cl)Cl)C2` (stereo unspecified), the superoxide response (% of plate mean) was inactive: 105%.

As to `COc1cc(I)ccc1[As](=O)(O)O`, the superoxide response (% of plate mean) was inactive: 91.1%. The same measure for `COc1ccc2nc(NP(=O)(c3ccccc3)c3ccccc3)sc2c1`: inactive: 100%. The figure for `COc1ccc(N/C(=N/P(=O)(N2CCOCC2)N2CCOCC2)N2CCOCC2)cc1` is inactive: 96.9%.

For `COP1(=S)c2c(C)nn(CCC#N)c2N=C(c2ccc(F)cc2)N1C` (stereo unspecified), the superoxide response (% of plate mean) is inactive: 78.5%.

As to `O=C(Nc1ccncc1[N+](=O)[O-])c1ccc([N+](=O)[O-])cc1[N+](=O)[O-]`, the superoxide response (% of plate mean) is inactive: 102%.

On to `O=C(COc1ccccc1)OC1CN2CCC1CC2` (stereo unspecified), for which the superoxide response (% of plate mean) is inactive: 104%. As for `CCOC(=O)c1ccc(NC(=O)C(C)(CCl)SC)cc1` (stereo unspecified), the superoxide response (% of plate mean) was inactive: 109%. The figure for `O=C(OC1CN2CCC1CC2)c1cccc([N+](=O)[O-])c1` (stereo unspecified) is inactive: 101%; for `CCC(C)N(CC(C)C)C(=S)SC(NC(C)=O)C(Cl)(Cl)Cl` (stereo unspecified) it is inactive: 91.3%; for `CCOC(=O)Nc1ccc([As](=O)(O)O)c(O)c1` it is inactive: 102%.

Take `Cc1cc(SC(NC(=O)c2ccccc2)C(Cl)(Cl)Cl)nc(C(C)C)n1` (stereo unspecified): the superoxide response (% of plate mean) is inactive: 98.1%. Turning to `CCOC(=O)Nc1cccc([As](=O)(O)O)c1`, the superoxide response (% of plate mean) was inactive: 96.8%. Turning to `O=[N+]([O-])c1ccc(Nc2ccc(Oc3ccc([N+](=O)[O-])cc3[N+](=O)[O-])cc2)c([N+](=O)[O-])c1`, the superoxide response (% of plate mean) is inactive: 101%.

Turning to `Cc1cc(SC(NC=O)C(Cl)(Cl)Cl)ncn1` (stereo unspecified), the superoxide response (% of plate mean) is inactive: 101%. The same measure for `O=P(Nc1ccccn1)(c1cccc2ccccc12)c1cccc2ccccc12`: inactive: 107%.

Values taken from PubChem BioAssay AID2690 (NMMLSC, 2010).
